PubChem BioAssay AID1236 (Emory University Molecular Libraries Screening Center, 2008)
“And” between values parts separate entries of the source, which are not always exact repeats. Identical values can stand only once. The list shows a part of the results, in another mix than the full data. The source made the active and inactive calls.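 How the source made its calls: active means inhibition above about 50% (limit read from the data); inactive means the rest.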

The compounds below were run on calpain II (m-calpain), Sus scrofa (assay: m-calpain protease activity blockers – biochemical, fluorogenic peptide substrate, 1536-well, primary screen (AID 1236)). Conditions: purified calpain II, 30 min, at 16 µM, active compounds read high.

Row | SMILES | inhibition
1 | O=P(Nc1ccccn1)(c1ccc(Br)cc1)c1ccc(Br)cc1 | inactive: 13.3%
2 | C[C@H]1OP(=O)(Oc2ccccc2)[C@H](O)[C@H](O)[C@H]1N=[N+]=[N-] (stereo not given in full) | inactive: -4.25%
3 | O=P(Nc1nc2ccccc2s1)(c1ccccc1)c1ccccc1 | inactive: 4.7%
4 | O=[N+]([O-])c1ncn(CCn2ncnc2[N+](=O)[O-])n1 | inactive: 30.3%
5 | CC(C)(C)C(=O)NC(Sc1ccncn1)C(Cl)(Cl)Cl (stereo not given) | inactive: -15%
6 | O=C(O)CNc1ccc([As](=O)(O)O)cc1 | inactive: -14%
7 | O=[N+]([O-])c1cccc(NC2=NCC(CBr)S2)c1 (stereo not given) | inactive: 13.8%
8 | O=C(Nc1cc([As](=O)(O)O)ccc1O)c1ccccc1 | inactive: -19.6%
9 | CCN(/C(=N/P(=O)(N1CCOCC1)N1CCOCC1)N1CCOCC1)c1ccc(OC)cc1 | inactive: 22.7%
10 | C[N+]1=C2C=CC=CC=C2SC12C([N+](=O)[O-])=CC([N+](=O)[O-])=C[C-]2[N+](=O)[O-] (stereo not given) | inactive: -8.5%
11 | Nc1ccc([As](=O)(O)c2ccc(N)cc2)cc1 | inactive: -2.8%
12 | CC1CCN(C(=O)Oc2c(Cl)cc(Cl)c3cccnc23)CC1 | inactive: -0.66%
13 | CN(C)C(=O)OCCc1n(C)cc[n+]1C | inactive: -4.85%
14 | CC(C)=N/N=C(\N)N[N+](=O)[O-] | inactive: 0.41%
15 | COc1ccc(C2=NCC(CBr)S2)cc1 (stereo not given) | inactive: -16.1%
16 | O=[N+]([O-])c1cc([N+](=O)[O-])c(CCNc2ccccc2)c([N+](=O)[O-])c1 | inactive: -13%
17 | CCc1nc2c(n1)c1c(non1O)c1c2no[n+]1[O-] | inactive: 3.1%
18 | Cc1ccc(NP(=O)(Oc2ccccc2)Oc2ccccc2)nc1 | inactive: -22.8%
19 | CC(=O)N1C2C3N(C(C)=O)C1C1N(C(C)=O)C(C(N1C(C)=O)N3C(C)=O)N2C(C)=O | inactive: 14.6%
20 | O=[N+]([O-])c1cccc2n[nH]nc12 | inactive: -47.4%
21 | O=C(NC(Sc1ccncn1)C(Cl)(Cl)Cl)c1ccccc1 (stereo not given) | inactive: -6.4%
22 | Cc1c2non([O-])c-2c(C)[n+](=O)[n+]1[O-] | inactive: 9.13%
23 | Oc1ccccc1CNc1ccccn1 | inactive: -12.1%
24 | Nc1cc(N)c2nonc2c1[N+](=O)[O-] | inactive: -5.45%
25 | CC(C)CC(=O)NC(Sc1ccc(Cl)cc1)C(Cl)(Cl)Cl (stereo not given) | inactive: -37.7%

Row | SMILES | inhibition
26 | Cc1ccc(N/C(=N/P(=O)(N2CCOCC2)N2CCOCC2)N2CCOCC2)cc1 | inactive: -24.8%
27 | NC(=O)c1cc([N+](=O)[O-])cc([N+](=O)[O-])c1N | inactive: -13.2%
28 | CN1CCCC(OC(=O)C(c2ccccc2)c2ccccc2)C1 (stereo not given) | inactive: 5.27%
29 | Clc1ccc(Cl)c(NC2=NCC(CBr)S2)c1 (stereo not given) | inactive: -7.89%
30 | Cc1ccc(OP(=O)(Nc2nccs2)Oc2ccc(C)cc2)cc1 | inactive: -3.81%
31 | COc1ccccc1OP(=O)(Nc1ccc(C)cn1)Oc1ccccc1OC | inactive: -14.3%
32 | Nc1cccc2ccc([As](=O)(O)O)cc12 | inactive: -314%
33 | CCN(N=Nc1nonc1N)c1nonc1N | inactive: -3.28%
34 | O=P(Nc1nc2ccc(Cl)cc2s1)(c1ccccc1)c1ccccc1 | inactive: -18.2%
35 | CC(=O)Nc1ccc([As](=O)(O)O)cc1 | inactive: -15.7%
36 | O=C(O)c1ccccc1[As](=O)(O)O | inactive: 11.4%
37 | Cc1ccc(NP(=O)(Oc2ccccc2F)Oc2ccccc2F)nc1 | inactive: -10%
38 | Cc1cc(SC(NC(=O)c2ccc(F)cc2)C(Cl)(Cl)Cl)ncn1 (stereo not given) | inactive: -5.47%
39 | CCOP(=O)(Nc1ccccc1)OCC | inactive: -16.6% and inactive: -5.14%
40 | ClCCSc1nnc(-c2cccnc2)o1 | inactive: 13.5%
41 | CC(C)c1ccc(OP(=O)(Nc2ccccn2)Oc2ccccc2F)cc1 (stereo not given) | inactive: 1.19%
42 | O=[N+]([O-])c1cc([N+](=O)[O-])c(-c2ccn[nH]2)s1 | inactive: 29.6%
43 | CC(C)NC(=O)NP(=O)(Oc1ccccc1)Oc1ccccc1 | inactive: -14.7%
44 | CCN(CC)C(=S)SC(NC=O)C(Cl)(Cl)Cl (stereo not given) | inactive: 4.86%
45 | C[As](=O)(O)c1cccc(C(=O)O)c1 | inactive: 12.8%
46 | O=[As](O)(c1ccc(O)cc1)c1ccccc1O | inactive: 11.6%
47 | Cc1ccc(OP(=O)(Nc2ccc([N+](=O)[O-])cn2)Oc2ccc(C)cc2)cc1 | inactive: -12.2%
48 | Cc1ccc2nc3c(c(C)c2c1)CC(C(Cl)Cl)S3 (stereo not given) | inactive: -10.2%
49 | COc1ccc(N/C(=N/P(=O)(N2CCOCC2)N2CCOCC2)N2CCOCC2)cc1 | inactive: 25.3%
50 | Cc1c2c(nc3ccccc13)SC(C(Cl)Cl)C2 (stereo not given) | inactive: 12.9%

Row | SMILES | inhibition
51 | Cc1cc(=O)[nH]c(N[N+](=O)[O-])n1 | inactive: -13.2%
52 | O=C(OC1CN2CCC1CC2)C12CC3CC(CC(C3)C1)C2 (stereo not given) | inactive: -11.7%
53 | COc1cc(I)ccc1[As](=O)(O)O | inactive: -14%
54 | COc1ccc2nc(NP(=O)(c3ccccc3)c3ccccc3)sc2c1 | inactive: 23.5%
55 | CCOC(=O)c1ccc(NC(=O)C(C)(CCl)SC)cc1 (stereo not given) | inactive: -18.2%
56 | CCC(C)N(CC(C)C)C(=S)SC(NC(C)=O)C(Cl)(Cl)Cl (stereo not given) | inactive: 3.65%
57 | COP1(=S)c2c(C)nn(CCC#N)c2N=C(c2ccc(F)cc2)N1C (stereo not given) | inactive: 6.22%
58 | O=C(COc1ccccc1)OC1CN2CCC1CC2 (stereo not given) | inactive: -9.13%
59 | CCOC(=O)Nc1cccc([As](=O)(O)O)c1 | inactive: 21.6%
60 | Cc1cc(SC(NC=O)C(Cl)(Cl)Cl)ncn1 (stereo not given) | inactive: 4.03%
61 | O=P(Nc1ccccn1)(c1cccc2ccccc12)c1cccc2ccccc12 | inactive: -69.8%
62 | O=[N+]([O-])c1ccc(Nc2ccc(Oc3ccc([N+](=O)[O-])cc3[N+](=O)[O-])cc2)c([N+](=O)[O-])c1 | inactive: -16.1%
63 | CCOC(=O)Nc1ccc([As](=O)(O)O)c(O)c1 | inactive: 1.49%
64 | Cc1cc(SC(NC(=O)c2ccccc2)C(Cl)(Cl)Cl)nc(C(C)C)n1 (stereo not given) | inactive: -24.8%
65 | O=P1(Nc2ncccn2)COc2ccccc2OC1 | inactive: -27.6%
66 | Nc1cccc([As](=O)(O)c2ccccc2)c1 | inactive: 16.5%
67 | O=[As](O)(c1cccs1)c1cccs1 | inactive: -21.9%
68 | Cc1ccc(OCC(=O)OC2CN3CCC2CC3)cc1 (stereo not given) | inactive: -62%
69 | O=P1(Nc2ccc(Br)cn2)COc2ccccc2OC1 | inactive: 8.52%
70 | CC1CCC(C(C)C)C(OP(=O)(Nc2ccccn2)c2ccccc2)C1 (stereo not given) | inactive: 31.9%
71 | Cc1nn(-c2ccccc2)c2c1P(=O)(N1CCOCC1)N(C)C(c1ccccc1)=N2 (stereo not given) | inactive: -1.72%
72 | CN(C)C1(CNC(=O)c2ccc(S(C)(=O)=O)cc2)CCCCC1 | inactive: 23.3%
73 | O=C(/C=C/c1ccccc1)OC1CN2CCC1CC2 (stereo not given) | inactive: 17.6%
74 | CN(C(=O)Cc1ccc(Cl)c(Cl)c1)[C@@H]1CCCC[C@H]1N1CCCC1 | inactive: 13.3%
75 | CC(C)/C=N\N=C(\N)N[N+](=O)[O-] | inactive: -22.9%

Row | SMILES | inhibition
76 | O=[As](O)(c1ccccc1Br)c1ccccc1Br | inactive: -23.3%
77 | O=P1(Nc2ccccn2)COc2ccccc2OC1 | inactive: -30.3%
78 | CCOP(=O)(Nc1ccc(C)cn1)OCC | inactive: -25.9%
79 | CC(C)(C)C(=O)NC(Sc1ncccn1)C(Cl)(Cl)Cl (stereo not given) | inactive: -21.6%
80 | Clc1n[nH]nc1-c1nn[nH][15n]1 | inactive: -20.5%
81 | Nc1cccc2c([As](=O)(O)O)cccc12 | inactive: -137%
82 | Cc1ccc(NCCc2c([N+](=O)[O-])cc([N+](=O)[O-])cc2[N+](=O)[O-])cc1 | inactive: 10.4%
83 | CCCOP(=S)(Nc1nc(N)cc(=O)[nH]1)OCCC | inactive: 16.7%
84 | CCOP(=O)(Nc1cccc2ccccc12)OCC | inactive: 17.2%
85 | COc1cc(C2NCCC3(OCCO3)C2(C)C)cc(OC)c1OC (stereo not given) | inactive: 18.7%
86 | O=C(OC1CN2CCC1CC2)c1ccc(Cl)cc1 (stereo not given) | inactive: -30.3%
87 | O=[As](O)(O)c1cccnc1 | inactive: -20.9%
88 | COc1cc(C(=O)NCC2(N3CCOCC3)CCCCC2)cc(Cl)c1OC(C)C | inactive: 11.6%
89 | Cc1cccc(OCC(=O)OC2CN3CCC2CC3)c1 (stereo not given) | inactive: 6.57%
90 | O=[As](O)(c1cccc(O)c1)c1cccc(O)c1 | inactive: 7.83%
91 | NC(=O)Nc1ccc([As](=O)(O)O)cc1 | inactive: -19.4%
92 | CCOP1(=S)c2c(C)nn(CCC#N)c2N=C(c2ccc(F)cc2)N1C (stereo not given) | inactive: 3.42%
93 | CN(C(=O)Cc1ccccc1)[C@@H]1CC[C@]2(CCCO2)C[C@H]1N1CCCC1 | inactive: -25.3%
94 | O=[N+]([O-])c1ccc2c(c1)nnn2O | inactive: 15.3%
95 | O=P(Nc1nccs1)(Oc1ccccc1)Oc1ccccc1 | inactive: -4.76%
96 | O=P(Nc1nccs1)(c1ccccc1)c1nc2ccccc2s1 (stereo not given) | inactive: 8.75%
97 | CCOP1(=S)c2c(C)nn(CCC#N)c2N=C(c2ccccc2F)N1C (stereo not given) | inactive: -30.4%
98 | CS(=O)(=O)c1cc([N+](=O)[O-])c2no[n+]([O-])c2c1 | inactive: 5%
99 | O=C(O)COc1ccc([As](=O)(O)O)cc1[N+](=O)[O-] | inactive: 5.43%
100 | Nc1ccccc1[As](=O)(O)c1ccccc1 | inactive: 3.09%
